US20140205583A1, “USE OF PLP WITH PEG-rMETase IN VIVO FOR ENHANCED EFFICACY” (AntiCancer, Inc., priority 2003, published 2014)

Columns and labels:
[1] = Pharmacokinetics: plasma enzyme activity following intravenous injection of naked and PEGylated rMETase in mice; assay type: in vivo, Athymic nude (nu/nu) mice
Procedure: rMETase activity was determined from α-ketobutyrate produced from L-methionine according to the method of Tanaka, H., et al., Biochemistry (1977) 16:100-106, with slight modification. 0.5 ml of sample diluted in 100 mM potassium phosphate buffer pH 8.0, containing 0.01% DTT, 1 mM EDTA Nae, 10 μM PLP and 0.05% Tween 80, was mixed with 0.5 ml of substrate solution containing 100 mM potassium phosphate buffer, pH 8.0, containing 25 mM L-methionine and 10 μM PLP in a glass test tube. The reaction mixture was vortexed immediately and incubated at 37° C. without shaking for precisely 10 minutes. The reaction was stopped by adding 0.5 ml of 50% TCA. The suspension was centrifuged at 13,000 rpm for 2 minutes. The supernatant (0.5 ml) was collected in a glass tube containing 1 ml 1 M acetate buffer, pH 5.0. […] The absorbance of the reaction mixture was measured at 320 nm. The assay was carried out in triplicate. ΔE was calculated by subtracting the average absorbance of blanks from the average absorbance of the reaction mixture. The enzyme activity was calculated by the following equation: Activity (U/ml)=0.548 (1.07+2.2ΔE) ΔE. […]
Athymic nude (nu/nu) mice aged 4 weeks (20-25 g) were used for the study with 4 mice per group. […] The plasma enzyme activity, methionine concentration and PLP level in the plasma, collected at the different time points, were measured as described above. […]

[2] = system: plasma anti-rMETase specific antibody; assay: Plasma anti-rMETase antibody titer by sandwich ELISA after immunization with FCA; assay type: in vivo, BALB/c male mice; conditions: mice immunized i.p. with 200 μg in FCA, figures in parentheses = numbers of mice
Procedure: BALB/c male mice were grouped randomly at 5 per group. Each mouse received three i.p. injections of 0.2 ml (200 μg) naked or PEG-rMETase emulsified in Freund's complete adjuvant (FCA) at weekly intervals. Two weeks following the last injection, a booster injection of the rMETase or PEG-rMETase was given to each mouse. Blood samples were collected two weeks after the booster injection, and plasma was separated and stored at −80° C.
Plasma anti-rMETase antibody was measured using a sandwich ELISA technique. 100 μl 200 μg/ml rMETase in 0.1 M carbonate coating buffer, pH 9.5, was added to each well of a 96-well microplate and incubated at 4° C. overnight. The plate was washed three times with PBS washing buffer, pH 7.4, containing 0.05% Tween-20, and blocked for 2 hours at room temperature with 200 μl of PBS assay buffer, pH 7.4, containing 10% FBS. After washing three times, 100 μl of 10-fold serial dilutions of the plasma samples in PBS assay buffer were added to appropriate wells and incubated for 2 hours at room temperature, followed by washing. 100 μl optimally diluted goat anti-mouse IgG and IgM subtypes conjugated with horseradish peroxidase (SIGMA, St. Louis, Mo., USA) were added to each well. The plate was incubated for 1 hour at room temperature and washed three times. 100 μl substrate solution containing O-phenylenediamine dihydrochloride (OPD) and hydrogen peroxide (SIGMA, St. Louis, Mo., USA) were added to each well, followed by 30 min incubation at room temperature. 50 μl 2N sulfuric acid were added to each well to stop the color reaction. The absorbance of each well was measured at 492 nm. The antibody titer was determined as the highest plasma dilution at which the extinction at 492 nm generated in the well of the immune plasma exceeded twice the extinction generated in those wells with negative control plasma.
IgG and IgM anti-rMETase antibody titers of the plasma of the mice immunized with naked or indicated PEGylated rMETase in the presence of FCA were determined using ELISA as described in the Materials and Methods. The figures in parentheses represents the numbers of mice.

[3] = Shionogi Lot No. 8Y003, 50 mM sodium phosphate pH 7.2, 10 μM PLP; cited from earlier work

L-methionine α-deamino-γ-mercaptomethane lyase [Naked rMETase]
Plasma half-life in mice ([1]; 80 U i.v. per mouse, calculated from plasma enzyme activity-time profiles): 2 h
Plasma enzyme activity 24 hours after injection ([1]; 80 units per mouse i.v.): undetectable
Plasma anti-rMETase specific IgG antibody titer [2]: 10^−8 (5)
Plasma anti-rMETase specific IgM antibody titer [2]: 10^−4 (4) and 10^−5 (1)
Plasma anti-rMETase specific IgG antibody titer ([2]; listed as naked rMETase): 10^−8
Plasma anti-rMETase specific IgM antibody titer ([2]; listed as naked rMETase): 10^−4
Specific activity [3]: 50.7 U/mg

“And” between values parts separate entries of the source, which are not always exact repeats. Equal entries are not always repeated.
